In assay [1] the test system is H1650 cells. The conditions noted are these: H1650, gefitinib 5 μM alone, 48 h.
For assay [2], the system named is HCC827 cells. In words: Annexin V/7-AAD apoptosis assay, HCC827. The assay is classed as cell-based, human. To be noted: HCC827, gefitinib 0.2 μM alone, 48 h.

`COc1cc2ncnc(Nc3ccc(F)c(Cl)c3)c2cc1OCCCN1CCOCC1` [gefitinib]: the apoptotic cell population was determined as 12.4 ± 0.9% in assay [1] and 67.8 ± 3.9% in assay [2].

For the origin of these results see PMC10580381 (ACS Pharmacology & Translational Science, 2023).
